Assay results reported in patent publication US20250042974A1, “LIPID MEDIATOR CHAPERONE AND USES THEREOF” (The Children's Medical Center Corporation, priority 2021, published 2025).

The chains behind the UniProt entries cited, without tags or fusion partners.
UniProt P21453, whole entry, species assumed: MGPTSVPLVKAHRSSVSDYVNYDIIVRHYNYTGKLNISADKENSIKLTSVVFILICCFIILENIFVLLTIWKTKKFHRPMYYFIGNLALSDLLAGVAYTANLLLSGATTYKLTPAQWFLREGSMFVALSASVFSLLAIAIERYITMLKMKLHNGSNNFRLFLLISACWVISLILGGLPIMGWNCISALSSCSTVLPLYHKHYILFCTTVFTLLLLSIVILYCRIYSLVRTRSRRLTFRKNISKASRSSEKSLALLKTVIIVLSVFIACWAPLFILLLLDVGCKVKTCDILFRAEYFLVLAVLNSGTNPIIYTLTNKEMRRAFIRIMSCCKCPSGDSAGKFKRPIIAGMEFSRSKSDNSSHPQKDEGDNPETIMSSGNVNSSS
UniProt O95136, whole entry, species assumed: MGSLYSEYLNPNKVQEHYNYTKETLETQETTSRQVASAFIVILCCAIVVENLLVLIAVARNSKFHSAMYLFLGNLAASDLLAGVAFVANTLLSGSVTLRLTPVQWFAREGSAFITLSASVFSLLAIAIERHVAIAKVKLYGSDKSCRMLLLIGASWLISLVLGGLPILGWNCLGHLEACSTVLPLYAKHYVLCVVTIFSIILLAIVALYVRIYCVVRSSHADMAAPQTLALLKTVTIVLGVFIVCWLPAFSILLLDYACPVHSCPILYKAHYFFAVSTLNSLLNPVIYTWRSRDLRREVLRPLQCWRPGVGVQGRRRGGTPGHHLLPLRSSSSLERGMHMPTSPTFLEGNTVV
UniProt Q99500, whole entry, species assumed: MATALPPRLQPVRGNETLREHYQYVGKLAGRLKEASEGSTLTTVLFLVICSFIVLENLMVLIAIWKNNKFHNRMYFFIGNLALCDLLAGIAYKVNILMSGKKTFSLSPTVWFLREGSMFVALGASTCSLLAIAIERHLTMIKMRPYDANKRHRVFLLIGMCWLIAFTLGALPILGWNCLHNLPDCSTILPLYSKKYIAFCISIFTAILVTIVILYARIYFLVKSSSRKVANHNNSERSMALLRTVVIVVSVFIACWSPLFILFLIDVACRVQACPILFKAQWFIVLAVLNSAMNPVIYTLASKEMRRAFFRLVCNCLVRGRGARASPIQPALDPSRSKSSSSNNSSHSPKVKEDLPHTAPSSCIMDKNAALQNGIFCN

How the values were obtained:
[1] = molecular target: T1, S1PR1 (Homo sapiens, UniProt P21453); experiment: Nanobit analysis of S1PR1 activation (Gαi and β-arrestin coupling); assay type: cell-based; conditions: 4-log range of ligand, 0.32 nM-1 μM S1P
T1 construct: expressed in transfected cells; host or cells: HEK293A
Text: (§1) The Nano-bit system, which employs split luciferase interactions of GPCRs with betaarrestin or specific Ga/bg complexes in response to GPCR activation (Inoue et al, 2019; Hisano et al, 2019) was used to characterize ApoA1-ApoM nanoparticles containing S1P. Briefly, HEK293A cells maintained in DMEM (GIBCO) supplemented with 10% FCS and Pen-Strep, were dispersed into 6 well plates and allowed to adhere overnight. For functional studies, cells were transfected with appropriate combinations of reporter plasmids. S1PR1-Small bit luciferase and Beta-arrestin-large bit luciferase fusion proteins or Gαi-small bit luciferase combined with Gβ1 and Gγ1-Large bit luciferase were employed as described previously (Hisano et al, 2019). After 24 hrs, cells were harvested, resuspended with the luciferase substrate Coelenterazine (Caymen Chem; 50 μM), dispersed into white opaque-bottom 96-well plates (Greiner) and maintained at RT for 2 hours to quench background. S1P containing samples were added by multi-channel pipetting and the plate was immediately analyzed for fluorescence at 470 nm for 30 minutes in a SpectraMax L 96-well plate reader (Molecular Devices). Data was integrated as described (Hisano et al, 2019).

[2] = molecular target: T2, S1PR2 (Homo sapiens, UniProt O95136); experiment: Nanobit analysis of S1PR2 coupling to β-arrestin; assay type: cell-based; conditions: compared to ApoM-Fc-S1P or ApoA1-ApoM-S1P
T2 construct: split-luciferase (NanoBiT) fragment on the receptor; expressed in transfected cells; host or cells: HEK293A
Text: as §1

[3] = molecular target: T3, S1PR3 (Homo sapiens, UniProt Q99500); experiment: Nanobit analysis of S1PR3 coupling to β-arrestin; assay type: cell-based; conditions: compared to ApoM-Fc-S1P or ApoA1-ApoM-S1P
T3 construct: split-luciferase (NanoBiT) fragment on the receptor; expressed in transfected cells; host or cells: HEK293A
Text: as §1

[4] = test system: NF-κB; experiment: TNFα-induced NF-κB luciferase reporter assay in HMEC; assay type: cell-based, human; conditions: 25-400 μg/ml
Method: TNFα-dependent NF-κB signaling was determined by using an NFκB-Luciferase based reporter assay system (pGL4.32[luc2P/NF-κB-RE/Hygro]; Promega). A stable NFκB reporter cell line in human microvascular endothelial cells (HMEC-1; ATCC) was created. HMEC were maintained in 10% FCS/Pen-Strep MCDB media supplemented with 2 mM L-Glutamine (Sigma), EGF (2 ng/ml; R&D systems) and Hydrocortisone (1 ng/ml; Sigma). Using TNFα (10 ng/ml; R&D Systems), both dose and temporal analyses were performed to establish optimal induction of the Luciferase response (Data not shown). The 5×10^5 reporter cells were distributed to 12 well plates and allowed to adhere for 24 hours. Media was replaced with MCDB media supplemented with 1% FCS, L-Glutamine. Cells were pre-treated with either media, ApoA1 (Purified Human ApoA1; Sigma), ApoA1-ApoM, ApoA1-ApoM-S1P, ApoM-Fc-S1P, or Albumin-S1P for 10 minutes and 2 ng/ml of TNFα. Samples were extracted using cell lysis buffers (Promega), luciferin substrate was added and the plates were measured for […] at 470 nm for 8-15 minutes in a SpectraMax L 96-well plate reader (Molecular Devices).

Albumin-S1P: S1P loaded onto fatty acid free Albumin
S1PR1-dependent activation of Gai [1]: similar
S1PR1 b-arrestin receptor-coupling [1]: similar
maximum stimulation of β-arrestin activation via S1PR2 [2]: Greater maximum stimulation
maximum stimulation of β-arrestin activation via S1PR3 [3]: Greater maximum stimulation
inhibition of TNFα induced NF-κB activity (qualitative) [4]: did not inhibit
